# Test results: patent US20040106673A1, “Compositions and methods for inhibiting proliferation in human prostate cancer cells” (priority 2002, published 2004)
# What was measured:
# LNCaP tumors [1] = test: Second in vivo study: TPA, ATRA or both i.p. in NCr mice with LNCaP tumors, 21 or 46 days; details: 21 days, once a day i.p.; TPA 0.16 nmol/g, ATRA 0.5 nmol/g
# Description: Tumor cell growth was measured and expressed as percent of initial size (FIG. 3). […] In this table, mice in Group A (13 mice/group) were treated for 21 days, while mice in Group B (6 mice/group) were a subset of the original group and were treated for an additional 25 days.
# The effect of the 21 day treatments on body weight was examined in order to determine if there was the same level of toxicity seen in the first animal study.
# The results from the Group B animals were analyzed separately.
# Male Ncr immunodeficient mice (6 to 7 weeks old) were obtained from Taco Farms (Germantown, N.Y.). The animals were housed in sterile filter-capped microisolator cages and provided with sterilized food and water. Prostate cancer cells (2×10^6 cells/0.1 ml/mouse) suspended in 50% matrigel (Collaborative Research, Bedford, Mass.) in RPMI 1640 medium were injected subcutaneously into the right flank of the mice. After 4 to 6 weeks, mice with well-established tumors (0.65 to 1 cm by 0.65 to 1 cm) were used for the various experiments. In all experiments, animals received the same volume of injections (5 μl/g body weight). Tumor size and body weight were measured daily. At the end of a study, mice were sacrificed by decapitation, tumors were excised, weighed, and placed in phosphate-buffered formalin for 48 hr at room temperature and then placed in ethanol for 48 hr before preparing paraffin sections.
# LNCaP tumors [2] = test: Mitotic cells and caspase 3 (active form) immunostaining in LNCaP tumors from treated mice; format: in vivo, male NCr mice; details: mice treated for 46 days
# Description: Tumor size and body weight were measured daily.
# Tumor sections used were stained by the horseradish peroxidase-conjugated-avidin method. Endogenous peroxidase was blocked by incubating the tissue sections in 3% hydrogen peroxide in methanol for 30 minutes at room temperature. Sections were then treated with 0.01 M sodium citrate buffer (pH 6.0) in a microwave oven at high temperature for 10 minutes. The sections were incubated with a protein block (normal goat serum) for 10 minutes, followed by avidin D for 15 minutes and biotin blocking solution for 15 minutes at room temperature. The sections were incubated with caspase 3 primary antibody (1:2000 dilution) for 30 minutes at room temperature followed by incubation with a biotinylated anti-rabbit secondary antibody for 30 minutes and incubation with conjugated-avidin solution for 30 minutes. Color development was achieved by incubation with 0.02% 3,3′-diaminobenzidine tetrahydrochloride containing 0.02% hydrogen peroxide for 10 minutes at room temperature. The slides were then counterstained with hematoxylin, dehydrated and coverslips were added for permanent mounting. A positive reaction was shown as a light brown to dark brown precipitate in the cytoplasm and/or perinuclei of the cells.
smiles,measurement,setting,value
"CC1=C(/C=C/C(C)=C/C=C/C(C)=C/C(=O)O)C(C)(C)CCC1 [ATRA, all-trans-retinoic acid]",percent of initial tumor size,LNCaP tumors [1],109±5.5%
same,Ratio of Mitotic Cells/Caspase 3 Cells,LNCaP tumors [2],1.62 ± 0.19
